The assay can be described thus: Inhibition of apamin-sensitive SKCa channel of guinea-pig hepatocytes. It is filed as cell-based, Cavia porcellus. To be noted: hepatocyte.

Molecule `CCN(CC)CCCC(C)Nc1ccnc2cc(Cl)ccc12` (stereo unspecified) [CHLOROQUINE] showed a half-maximal inhibitory concentration (IC50) of 200 µM.

What is called IC50 is the concentration that inhibits the measured activity by half.

Source of the values: ChEMBL document CHEMBL1137133, “Defining determinant molecular properties for the blockade of the apamin-sensitive SKCa channel in guinea-pig hepatocytes: the influence of polarizability and molecular geometry” (Bioorg Med Chem Lett, 2004).
